What was measured:
[1] = target: D(2) dopamine receptor (Homo sapiens, UniProt P14416); assay: Agonist activity at human cloned dopamine D2 receptor expressed in CHO cells by [35S]GTPgammaS binding assay; assay type: functional, cell-based
[2] = target: D(2) dopamine receptor (Rattus norvegicus, UniProt P61169); assay: Displacement of [3H]spiroperidol from rat cloned dopamine D2L receptor expressed in HEK293 cells; assay type: cell-based
[3] = organism: Rattus norvegicus; assay: Selectivity ratio of Ki for rat cloned dopamine D2L receptor to Ki for rat cloned dopamine D3 receptor

Amino acid sequences for entries named in this document (tags omitted).
UniProt P14416, whole entry: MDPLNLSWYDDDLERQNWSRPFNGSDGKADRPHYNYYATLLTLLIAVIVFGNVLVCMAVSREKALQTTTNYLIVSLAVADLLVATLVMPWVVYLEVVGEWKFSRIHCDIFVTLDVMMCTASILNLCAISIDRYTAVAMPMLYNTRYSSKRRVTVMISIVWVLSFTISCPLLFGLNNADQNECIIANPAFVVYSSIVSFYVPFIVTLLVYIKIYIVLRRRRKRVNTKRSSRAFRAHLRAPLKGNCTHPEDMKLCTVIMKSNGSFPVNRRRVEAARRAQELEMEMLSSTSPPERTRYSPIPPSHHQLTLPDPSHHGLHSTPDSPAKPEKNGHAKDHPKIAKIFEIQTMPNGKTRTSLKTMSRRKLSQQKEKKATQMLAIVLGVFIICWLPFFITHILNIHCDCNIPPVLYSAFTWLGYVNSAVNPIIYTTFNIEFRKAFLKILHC
UniProt P61169, whole entry: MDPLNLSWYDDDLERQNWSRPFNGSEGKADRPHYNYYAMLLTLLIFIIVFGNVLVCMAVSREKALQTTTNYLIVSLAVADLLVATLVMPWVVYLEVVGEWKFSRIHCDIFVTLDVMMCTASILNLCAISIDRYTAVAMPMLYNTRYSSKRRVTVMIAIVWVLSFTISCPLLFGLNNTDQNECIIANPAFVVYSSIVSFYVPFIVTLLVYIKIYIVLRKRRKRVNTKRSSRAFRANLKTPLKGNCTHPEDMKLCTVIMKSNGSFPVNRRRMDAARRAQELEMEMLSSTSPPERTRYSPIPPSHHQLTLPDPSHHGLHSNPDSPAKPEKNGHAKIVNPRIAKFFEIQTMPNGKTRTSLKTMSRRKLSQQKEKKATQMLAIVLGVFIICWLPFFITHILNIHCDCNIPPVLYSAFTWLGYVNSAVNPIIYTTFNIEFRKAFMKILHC

Row | EC50 [1] [nM] | Ki [2] [nM] | Ratio Ki [3] | Structure (SMILES)
1 | 114 |  |  | CCCN(CCN1CCN(C(=O)c2cc3ccccc3[nH]2)CC1)[C@H]1CCc2nc(N)sc2C1
2 |  | 531 | 305 | CCCN(CCCCN1CCN(C(=O)c2cc3ccccc3[nH]2)CC1)C1CCc2nc(N)sc2C1 (racemic)
